Earlier results, collected in patent publication US20150335610A1, “PDK4 INHIBITOR AND USE THEREOF” (priority 2012, published 2015).

By UniProt entry, the sequences of proteins in these tests, tags left out.
UniProt Q16654, whole entry, species assumed: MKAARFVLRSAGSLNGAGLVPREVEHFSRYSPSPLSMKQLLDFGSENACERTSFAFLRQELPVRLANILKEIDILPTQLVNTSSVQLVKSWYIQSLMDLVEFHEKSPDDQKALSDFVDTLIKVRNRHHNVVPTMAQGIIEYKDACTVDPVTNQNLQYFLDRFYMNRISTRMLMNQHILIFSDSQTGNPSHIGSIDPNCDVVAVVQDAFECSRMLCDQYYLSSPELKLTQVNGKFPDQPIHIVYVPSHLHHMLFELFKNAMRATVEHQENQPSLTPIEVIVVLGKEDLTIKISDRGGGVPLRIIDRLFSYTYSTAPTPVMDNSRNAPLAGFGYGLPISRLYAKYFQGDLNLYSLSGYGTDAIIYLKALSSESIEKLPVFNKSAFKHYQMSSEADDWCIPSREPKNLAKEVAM

Molecular target: PDK4 (Homo sapiens, UniProt Q16654)
Details: background art; cited from earlier work

Structure (SMILES): O=C(O)C(Cl)Cl [DCA, dichloroacetic acid]
- effect on PDK4 activity (reported): weak inhibitory activity
